The values that follow come from PubChem BioAssay AID504810 (National Center for Advancing Translational Sciences (NCATS), 2011).

Chains of the proteins cited; added tags and fusions are not shown.
UniProt P16473, whole entry: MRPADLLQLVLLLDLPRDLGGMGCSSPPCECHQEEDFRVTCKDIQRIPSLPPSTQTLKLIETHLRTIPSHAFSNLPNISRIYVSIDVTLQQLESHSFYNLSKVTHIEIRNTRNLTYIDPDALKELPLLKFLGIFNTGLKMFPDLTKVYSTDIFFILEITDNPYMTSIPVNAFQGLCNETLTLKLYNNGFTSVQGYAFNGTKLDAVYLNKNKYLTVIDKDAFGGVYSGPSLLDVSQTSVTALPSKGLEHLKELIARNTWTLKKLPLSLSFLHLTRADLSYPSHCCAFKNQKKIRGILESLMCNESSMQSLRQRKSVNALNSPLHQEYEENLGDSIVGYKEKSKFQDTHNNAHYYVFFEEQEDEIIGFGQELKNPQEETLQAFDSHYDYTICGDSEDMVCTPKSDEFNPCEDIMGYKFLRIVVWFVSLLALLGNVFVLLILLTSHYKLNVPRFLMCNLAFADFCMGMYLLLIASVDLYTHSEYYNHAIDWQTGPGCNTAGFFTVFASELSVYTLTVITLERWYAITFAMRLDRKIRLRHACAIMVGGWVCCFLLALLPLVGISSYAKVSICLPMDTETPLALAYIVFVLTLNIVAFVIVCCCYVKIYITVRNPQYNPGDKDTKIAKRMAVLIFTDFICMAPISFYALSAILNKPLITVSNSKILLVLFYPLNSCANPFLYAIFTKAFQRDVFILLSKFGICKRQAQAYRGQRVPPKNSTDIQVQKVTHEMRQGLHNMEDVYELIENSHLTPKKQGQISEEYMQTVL

Structures are written as SMILES. Only a part is listed here, and it is no random draw. Active and inactive are the calls of the source.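 How the source made its calls: active means activity change below a set negative limit, meaning inhibition stronger than a set level (cut at about -70% in these data); inconclusive means activity change between two set negative limits; inactive means the rest.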
On the % scale 0 is the no-effect control and ±100 the full control effect.

The target of the assay is Thyrotropin receptor (Homo sapiens) (UniProt P16473). The assay is described as follows: Antagonists of the Thyroid Stimulating Hormone Receptor: HTS campaign. The following applies: TSHR-expressing cells, TSH-stimulated cAMP HTRF, 2 h; at 11.5 µM; stronger effect = lower value. Summed up:
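Cell-based HTRF cAMP assay; TSHR cells + compound, TSH EC80 (4nM final), 2 h, 37 deg C. Lysis with anti-cAMP cryptate and cAMP-d2, 30 min RT, read 665/620 nm.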
For orientation: TR-FRET usually uses a lanthanide donor and a delayed reading to cut background.
On to `CP(=O)(Nc1ccccc1Br)Oc1ccccc1` (configuration not stated), for which the activity change, negative = inhibition is inactive: 7.12%.

`CP(=O)(Nc1ccc(SC(F)(F)F)cc1)Oc1ccc(Cl)cc1` (configuration not stated): the activity change, negative = inhibition is inactive: -2.02%.

`Cc1cccc(C)c1OP(C)(=O)Nc1ccc(SC(F)(F)F)cc1` (configuration not stated): the activity change, negative = inhibition was inactive: -11.9%. With `CP(=O)(Oc1ccccc1)OC(c1ccccc1)C(F)(F)F` (configuration not stated), the activity change, negative = inhibition is inactive: -12.2%. Next, `CP(=O)(NC(=O)Nc1ccccc1)Oc1ccccc1` (configuration not stated): inactive: -1.46%; `CCc1ccc(OP(C)(=O)N2CCN(c3ccc([N+](=O)[O-])cc3)CC2)cc1` (configuration not stated): inactive: -1.48%; `Cc1cc(C)cc(OP(C)(=O)Nc2ccc(SC(F)(F)F)cc2)c1` (configuration not stated): inactive: -9.22%. For `CCOP(C)(=S)SCC(=O)NC(C)C(=O)O` (configuration not stated), the activity change, negative = inhibition was inactive: 18.3%. With `CCOC(=O)c1ccc(NP(C)(=O)Oc2ccc(OC)cc2)cc1` (configuration not stated) the figure was inactive: -7.13%; with `CCN(CC)CC(O)COC(=O)C(O)(c1ccccc1)C1CCCCC1` (configuration not stated), inactive: -2.56%; with `COc1ccc(OP(C)(=O)Nc2ccc(Br)cc2)cc1` (configuration not stated), inactive: 5.78%. With `CP(=O)(Oc1ccccc1)N1CCOC1=O` (configuration not stated) the figure was inactive: 10.7%; with `CCc1ccc(OP(C)(=O)Nc2cccnc2)cc1` (configuration not stated), inactive: 2.49%; with `COc1ccccc1OP(C)(=O)Nc1c(C)n(C)n(-c2ccccc2)c1=O` (configuration not stated), inactive: -9.14%. Next, `O=C(OCCCN1CCCC1)C(O)(c1ccccc1)C1CCCCC1` (configuration not stated): inactive: 33.7%; `CP(=O)(Nc1ccc(Cl)cc1)Oc1ccc(F)cc1` (configuration not stated): inactive: -14.2%.

As to `COc1ccccc1OP(C)(=O)Nc1ccccc1Br` (configuration not stated), the activity change, negative = inhibition was inactive: -9.23%. `CC(C)(C)c1ccc(OP(C)(=O)O)cc1`: the activity change, negative = inhibition was inactive: -2.96%.

Consider `CN(C)C(=O)c1c([N+](=O)[O-])cc([N+](=O)[O-])cc1[N+](=O)[O-]`, for which the activity change, negative = inhibition is inactive: 7.59%.

For `CP(=O)(OC12CC3CC(CC(C3)C1)C2)OC12CC3CC(CC(C3)C1)C2`, the activity change, negative = inhibition is inactive: -0.643%.

As for `CCOC(=O)c1ccc(NP(C)(=O)Oc2ccc(Cl)cc2)cc1` (configuration not stated), the activity change, negative = inhibition was inactive: 1.58%. As for `Cc1cc(C)cc(OP(C)(=O)Nc2cccc(C(F)(F)F)c2)c1` (configuration not stated), the activity change, negative = inhibition is inactive: -7.29%. Next, `COc1ccc(OP(C)(=O)Nc2ccccc2Br)cc1` (configuration not stated): inactive: 17.2%; `COc1ccccc1OP(C)(=O)Nc1ccc(C)c(C)c1` (configuration not stated): inactive: 13.7%; `Cc1nc2ccc3ccccc3c2o1.O=[N+]([O-])c1cc([N+](=O)[O-])c(O)c([N+](=O)[O-])c1`: inactive: 7.28%.

Take `CP(=O)(Nc1ccc(Cl)cc1Cl)Oc1ccccc1` (configuration not stated): the activity change, negative = inhibition was inactive: 1.95%. With `CP(=O)(OCCOc1ccccc1)OCCOc1ccccc1` the figure was inactive: 3.08%; with `COc1ccccc1OP(C)(=O)Nc1ccc(Br)cc1` (configuration not stated), inactive: -4.45%. As for `CN(C)CCOC(=O)C(O)(c1ccccc1)C1CCCC1` (configuration not stated), the activity change, negative = inhibition is inactive: 3.04%. On to `COc1ccc(OP(C)(=O)Nc2ccccn2)cc1` (configuration not stated), for which the activity change, negative = inhibition was inactive: 5.8%. Next, `Cc1c(NP(C)(=O)Oc2ccc(C(C)C)cc2)c(=O)n(-c2ccccc2)n1C` (configuration not stated): inactive: 9.51%. With `O=[N+]([O-])c1cc([N+](=O)[O-])c(Nc2ccccn2)c([N+](=O)[O-])c1` the figure was inactive: 6.35%.

On to `CCc1ccc(OP(C)(=O)O)cc1`, for which the activity change, negative = inhibition was inactive: 14.4%. Take `CP(=O)(Nc1ccccn1)Oc1ccccc1` (configuration not stated): the activity change, negative = inhibition was inactive: -3.03%. Next, `COc1ccccc1OP(C)(=O)Nc1ccc(C)cc1C` (configuration not stated): inactive: 0.962%; `CC(C)c1ccc(OP(C)(=O)Nc2ccc(SC(F)(F)F)cc2)cc1` (configuration not stated): inactive: 2.85%.

As for `CP(=O)(Nc1ccccc1F)Oc1ccccc1` (configuration not stated), the activity change, negative = inhibition was inactive: -1.66%.

Turning to `O=C(OCCN1CCN(CCOCc2ccccc2)CC1)C(O)(c1ccccc1)c1ccccc1`, the activity change, negative = inhibition was inactive: 3.21%. Next, `COc1ccc(OP(C)(=O)Nc2ccc(SC(F)(F)F)cc2)cc1` (configuration not stated): inactive: 13.6%; `CCOC(=O)c1ccc(NP(C)(=O)Oc2ccc(F)cc2)cc1` (configuration not stated): inactive: -16.1%. Regarding `CCN(CC)CCCOC(=O)C(O)(c1ccccc1)C1CCCCC1` (configuration not stated), the activity change, negative = inhibition was inactive: -13.9%. Next, `CCCCCOc1ccc(NP(C)(=O)Oc2ccc(Cl)cc2Cl)cc1` (configuration not stated): inactive: 1.01%; `CP(=O)(Nc1ccccc1)Oc1ccc(F)cc1` (configuration not stated): inactive: 12.8%; `COc1ccc(OP(C)(=O)Nc2cccc(Br)c2)cc1` (configuration not stated): inactive: -0.488%. Next, `COc1ccc(NP(C)(=O)Oc2ccccc2OC)cc1` (configuration not stated): inactive: 8.37%.

Consider `CN(C)CCOC(=O)C(O)(c1ccccc1)C1CCCCC1` (configuration not stated), for which the activity change, negative = inhibition was inactive: 0.812%. With `Cc1cc(-c2cccc3ccccc23)c(C)cn1.O=[N+]([O-])c1cc([N+](=O)[O-])c(O)c([N+](=O)[O-])c1` the figure was inactive: -5.31%; with `O=[N+]([O-])c1ccc(OP2(=O)COCCO2)cc1` (configuration not stated), inactive: 5.93%; with `CP(=O)(Nc1ccc(SC(F)(F)F)cc1)Oc1ccc(F)cc1` (configuration not stated), inactive: -12.2%. Regarding `CCOP(C)(=S)SCC(=O)NC(C)(CC)C(=O)O` (configuration not stated), the activity change, negative = inhibition is inactive: 1.02%. Next, `CP(=O)(Nc1ccc2c(c1)OCCO2)Oc1ccccc1` (configuration not stated): inactive: 0.182%. As for `Cc1ccccc1NP(C)(=O)Nc1ccccc1C`, the activity change, negative = inhibition was inactive: 9.71%.
